Patent US6642216B2, “Isoprenoid pathway inhibitors for stimulating bone growth” (ZymoGenetics Corporation, priority 1996, dated 2003)

Tested on: neonatal mouse calvaria
Assay: Neonatal mouse calvaria assay (in vitro bone formation)
Type: cell-based
Set-up: Osteoblast Number, % increase over vehicle control / New Bone Area, % increase over vehicle control: concentration or dose not given beside the values
Details: Experiment 1

BMP-2: bone morphogenic protein, control factor, "gold standard" agent for bone growth
New Bone Area (3 days): 8.4 mm^2 × 10^−3 | New Bone Area, % increase over vehicle control (3 days): 75% | Osteoblast Number (3 days): 127 Obs/field | Osteoblast Number, % increase over vehicle control (3 days): 31% | New Bone Area (7 days): 18.7 mm^2 × 10^−3 | New Bone Area, % increase over vehicle control (7 days): 140% | Osteoblast Number (7 days): 119 Obs/field | Osteoblast Number, % increase over vehicle control (7 days): 28%
